Among the data in patent US9096596B2 (Janssen Pharmaceutica NV, priority 2013, dated 2015) are IC50 and Ki values, retold here.

By UniProt entry, the sequences of proteins in these tests, tags left out. Where a name states a change or a piece, a line headed by the entry shows the natural chain unless it says otherwise.
UniProt Q99572: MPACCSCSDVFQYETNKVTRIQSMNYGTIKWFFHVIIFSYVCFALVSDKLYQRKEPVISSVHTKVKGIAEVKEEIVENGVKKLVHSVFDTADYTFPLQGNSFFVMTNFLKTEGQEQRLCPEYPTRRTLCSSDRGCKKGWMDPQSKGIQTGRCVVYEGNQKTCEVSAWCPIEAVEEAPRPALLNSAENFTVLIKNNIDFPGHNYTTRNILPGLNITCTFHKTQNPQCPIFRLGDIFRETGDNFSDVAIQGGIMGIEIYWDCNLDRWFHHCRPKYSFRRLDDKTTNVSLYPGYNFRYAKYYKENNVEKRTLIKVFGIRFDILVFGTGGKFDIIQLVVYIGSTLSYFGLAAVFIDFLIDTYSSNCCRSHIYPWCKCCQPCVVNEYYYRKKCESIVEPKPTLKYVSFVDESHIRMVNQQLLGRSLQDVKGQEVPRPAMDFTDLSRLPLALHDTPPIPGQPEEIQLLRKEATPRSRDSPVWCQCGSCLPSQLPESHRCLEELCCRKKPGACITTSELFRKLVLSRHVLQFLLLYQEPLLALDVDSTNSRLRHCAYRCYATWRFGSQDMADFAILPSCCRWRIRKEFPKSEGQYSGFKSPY
UniProt Q64663: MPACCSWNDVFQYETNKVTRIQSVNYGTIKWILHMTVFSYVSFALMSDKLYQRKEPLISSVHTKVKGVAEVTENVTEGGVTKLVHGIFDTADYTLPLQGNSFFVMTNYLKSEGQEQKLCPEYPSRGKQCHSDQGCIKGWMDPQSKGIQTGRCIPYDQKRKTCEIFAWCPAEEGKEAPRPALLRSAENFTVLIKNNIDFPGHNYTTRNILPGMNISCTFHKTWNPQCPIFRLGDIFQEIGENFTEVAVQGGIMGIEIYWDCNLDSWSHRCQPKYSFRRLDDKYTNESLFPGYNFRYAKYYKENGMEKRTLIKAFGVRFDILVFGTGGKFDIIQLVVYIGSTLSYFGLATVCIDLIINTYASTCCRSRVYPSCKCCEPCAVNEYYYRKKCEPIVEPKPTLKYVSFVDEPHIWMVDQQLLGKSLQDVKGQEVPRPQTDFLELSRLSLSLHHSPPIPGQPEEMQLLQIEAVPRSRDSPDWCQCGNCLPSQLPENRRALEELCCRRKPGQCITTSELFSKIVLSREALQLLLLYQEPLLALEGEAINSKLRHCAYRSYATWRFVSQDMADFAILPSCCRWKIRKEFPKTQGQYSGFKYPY

Assay [1] concerns the target T1, P2X7 (Homo sapiens (Human), UniProt Q99572). The experiment in a line: Ca2+ flux (FLIPR) in 1321N1 cells expressing recombinant human P2X7 channel. Conditions: 250 μM BzATP, Calcium-4 dye. In kind it is cell-based. The procedure: (§1) 1321N1 cells expressing the recombinant human, rat or mouse P2X7 channel was cultured in HyQ DME/(HyClone/Dulbecco's Modified Eagle Medium) high glucose supplemented with 10% Fetal Bovine Serum (FBS) and appropriate selection marker. Cells were seeded at a density of 25000 cells/well (96-well clear bottom black walled plates) in 100 μl volume/well. On the day of the experiment, cell plates were washed with assay buffer, containing (in mM): 130 NaCl, 2 KCl, 1 CaCl2, 1 MgCl2, 10 HEPES, 5 glucose; pH 7.40 and 300 mOs. After the wash, cells were loaded with the Calcium-4 dye (Molecular Device) and incubated in the dark for 60 minutes. Test compounds were prepared at 250× the test concentration in neat DMSO. Intermediate 96-well compound plates were prepared by transferring 1.2 μL of the compound into 300 μL of assay buffer. A further 3× dilution occurred when transferring 50 μL/well of the compound plate to 100 μL/well in the cell plate. Cells were incubated with test compounds and dye for 30 minutes. Calcium dye fluorescence was monitored in FLIPR as the cells were challenged by adding 50 μL/well of BzATP (final concentration is 250 μM BzATP (human and rat) or 600 μM (mouse)). The fluorescence change was measured 180 seconds after adding the agonist.
(In general: A change in cytosolic calcium serves as a functional read-out for many receptors and channels.)

The next assay has as its target rat P2X7 (Rattus norvegicus (Rat), UniProt Q64663). The assay can be described thus: Ca2+ flux (FLIPR) in 1321N1 cells expressing recombinant rat P2X7 channel. It counts as cell-based. Conditions: 250 μM BzATP, Calcium-4 dye. The procedure: as §1
For assay [2], the target named is T1, P2X7. The assay can be described thus: Radioligand binding, human P2X7-1321N1 cell membranes, tracer tritiated A-804598. The procedure:
human or rat P2X7-1321 N1 cells were collected and frozen @ −80° C. On the day of the experiment, cell membrane preparations were made according to standard published methods. The total assay volume was 100 μl:10 μl compound (10×)+(b) 40 μl tracer (2.5×)+50 μl membrane (2×). The tracer used for the assay was tritiated A-804598. The compound can be prepared as described in the literature. […] The assay was terminated by filtration (GF/B filters pre-soaked with 0.3% PEI) and washed with washing buffer (Tris-HCl 50 mM). The IC50 generated in the binding assay was corrected for tracer concentration and affinity of the tracer to derive at the affinity (Ki) of the test compounds.

Setting [3] is: human P2X7-1321N1 membranes, 1 hour at 4° C., IC50 corrected for tracer concentration and affinity.

The term IC50 denotes the concentration needed to halve the response being measured. Broadly, the Ki is the equilibrium dissociation constant of an inhibitor or competing ligand from its target. Read a low Ki as a stronger hold on the target.

Structures are written as SMILES. Where two headings read alike, the source gives them in different places.

Consider `Cc1nc2c(c(-c3ccn[nH]3)n1)C[C@H](C)N(C(=O)c1ccc(F)c(C(F)(F)F)c1Cl)C2` (single isomer, unassigned) [Example 65, (S*)-(2-chloro-4-fluoro-3-(trifluoromethyl)phenyl)(2,6-dimethyl-4-(1H-pyrazol-5-yl)-5,6-dihydropyrido[3,4-d]pyrimidin-7(8H)-yl)methanone], for which the figures for the 50% inhibitory concentration (IC50) on P2X7 [1] and on rat P2X7 were 2820 nM and 1220 nM, respectively.
As to `Cc1nc2c(c(-c3ccn[nH]3)n1)C[C@@H](C)N(C(=O)c1ccc(F)c(C(F)(F)F)c1Cl)C2` (single isomer, unassigned) [Example 66, (R*)-(2-chloro-4-fluoro-3-(trifluoromethyl)phenyl)(2,6-dimethyl-4-(1H-pyrazol-5-yl)-5,6-dihydropyrido[3,4-d]pyrimidin-7(8H)-yl)methanone], the IC50 at rat P2X7 was 10 nM.
For the molecule `Cc1nc2c(c(-c3ccn[nH]3)n1)C[C@@H](C)N(C(=O)c1cccc(C(F)(F)F)c1F)C2` (single isomer, unassigned) [Example 75, (R*)-(2,6-dimethyl-4-(1H-pyrazol-5-yl)-5,6-dihydropyrido[3,4-d]pyrimidin-7(8H)-yl)(2-fluoro-3-(trifluoromethyl)phenyl)methanone], the 50% inhibitory concentration (IC50) on P2X7 [1] amounted to 12.7 nM; at rat P2X7, 7.7 nM.
With `Cc1nc2c(c(-c3ccn[nH]3)n1)C[C@H](C)N(C(=O)c1cccc(C(F)(F)F)c1F)C2` (single isomer, unassigned) [Example 76, (S*)-(2,6-dimethyl-4-(1H-pyrazol-5-yl)-5,6-dihydropyrido[3,4-d]pyrimidin-7(8H)-yl)(2-fluoro-3-(trifluoromethyl)phenyl)methanone], the values for the half-inhibitory concentration (IC50) at P2X7 [1] and on rat P2X7 were 406 nM and 126 nM, respectively.
As for `Cc1nc2c(c(-c3ccn[nH]3)n1)C[C@@H](C)N(C(=O)c1ccc(Cl)cc1F)C2` (single isomer, unassigned) [Example 88, (R*)-(4-chloro-2-fluorophenyl)(2,6-dimethyl-4-(1H-pyrazol-5-yl)-5,6-dihydropyrido[3,4-d]pyrimidin-7(8H)-yl)methanone], the IC50 at rat P2X7 came to 8770 nM.
As to `Cc1nc2c(c(-c3ccn[nH]3)n1)C[C@@H](C)N(C(=O)c1ccc(F)cc1Cl)C2` (single isomer, unassigned) [Example 91, (R*)-(2-chloro-4-fluorophenyl)(2,6-dimethyl-4-(1H-pyrazol-5-yl)-5,6-dihydropyrido[3,4-d]pyrimidin-7(8H)-yl)methanone], on P2X7 [1], the IC50 amounted to 58.7 nM. For the same molecule, the affinity on P2X7 [2], expressed as Ki, was 25.1 nM.
For the molecule `Cc1nc2c(c(-c3ccn[nH]3)n1)C[C@H](C)N(C(=O)c1ccc(F)cc1Cl)C2` (single isomer, unassigned) [Example 92, (S*)-(2-chloro-4-fluorophenyl)(2,6-dimethyl-4-(1H-pyrazol-5-yl)-5,6-dihydropyrido[3,4-d]pyrimidin-7(8H)-yl)methanone], the IC50 at P2X7 [1] amounted to 1590 nM.
`C[C@H]1c2ncnc(-c3ccn[nH]3)c2CCN1C(=O)c1ccc(F)c(C(F)(F)F)c1Cl` (single isomer, unassigned) [Example 117, (S*)-(2-chloro-4-fluoro-3-(trifluoromethyl)phenyl)(8-methyl-4-(1H-pyrazol-5-yl)-5,6-dihydropyrido[3,4-d]pyrimidin-7(8H)-yl)methanone]: the half-maximal inhibitory concentration (IC50) on P2X7 [1] was determined as 968 nM; on rat P2X7 it was 1230 nM.
For `C[C@@H]1c2ncnc(-c3ccn[nH]3)c2CCN1C(=O)c1ccc(F)c(Cl)c1Cl` (single isomer, unassigned) [Example 119, (R*)-(2,3-dichloro-4-fluorophenyl)(8-methyl-4-(1H-pyrazol-5-yl)-5,6-dihydropyrido[3,4-d]pyrimidin-7(8H)-yl)methanone], on P2X7 [2], affinity was put at a Ki of 12.6 nM. This lies in the double-digit nanomolar range.
In the case of `C[C@@H]1c2ncnc(-c3ccn[nH]3)c2CCN1C(=O)c1ccc(Cl)c(F)c1Cl` (single isomer, unassigned) [Example 122, (R*)-(2,4-dichloro-3-fluorophenyl)(8-methyl-4-(1H-pyrazol-5-yl)-5,6-dihydropyrido[3,4-d]pyrimidin-7(8H)-yl)methanone], at rat P2X7, the IC50 came to 128 nM. The molecule also returned a Ki at P2X7 [2] of 20 nM.
Regarding `C[C@H]1c2ncnc(-c3ccn[nH]3)c2CCN1C(=O)c1ccc(Cl)c(F)c1Cl` (single isomer, unassigned) [Example 123, (S*)-(2,4-dichloro-3-fluorophenyl)(8-methyl-4-(1H-pyrazol-5-yl)-5,6-dihydropyrido[3,4-d]pyrimidin-7(8H)-yl)methanone], on rat P2X7, the concentration for half-maximal inhibition (IC50) stood at 1000 nM. The Ki on P2X7 [2] was determined as 501 nM.
Take `Cc1cccc(C(=O)N2CCc3c(ncnc3-c3ccn[nH]3)C2)c1Cl` [Example 8, 7-[(2-Chloro-3-methylphenyl)carbonyl]-4-(1H-pyrazol-5-yl)-5,6,7,8-tetrahydropyrido[3,4-d]pyrimidine]: on P2X7 [1], the IC50 came out at 244 nM.
With `O=C(c1ccc(F)cc1Cl)N1CCc2c(ncnc2-c2ccn[nH]2)C1` [Example 21], the IC50 at rat P2X7 is 3210 nM.
Turning to `Cc1nc2c(c(-c3ccc(F)cc3)n1)CCN(C(=O)c1cccc(Cl)c1Cl)C2` [Example 28, 7-[(2,3-Dichlorophenyl)carbonyl]-4-(4-fluorophenyl)-2-methyl-5,6,7,8-tetrahydropyrido[3,4-d]pyrimidine], the IC50 on P2X7 [1] was determined as 452 nM.
Take `Nc1nc2c(c(-c3ccccc3)n1)CCN(C(=O)c1cccc(Cl)c1Cl)C2` [Example 29, 7-[(2,3-Dichlorophenyl)carbonyl]-4-phenyl-5,6,7,8-tetrahydropyrido[3,4-d]pyrimidin-2-amine]: the IC50 at rat P2X7 turned out to be 1970 nM.
Still for that read-out and setting: the figure for `Cc1nc2c(c(-c3ccccc3)n1)CCN(C(=O)c1cccc(C(F)(F)F)c1Cl)C2` [Example 32, 7-{[2-Chloro-3-(trifluoromethyl)phenyl]carbonyl}-2-methyl-4-phenyl-5,6,7,8-tetrahydropyrido[3,4-d]pyrimidine] is 4050 nM; for `O=C(c1cccc(C(F)(F)F)c1Cl)N1CCc2c(ncnc2-c2ccc[nH]2)C1` [Example 42, 7-{[2-Chloro-3-(trifluoromethyl)phenyl]carbonyl}-4-(1H-pyrrol-2-yl)-5,6,7,8-tetrahydropyrido[3,4-d]pyrimidine] it is 2510 nM.
As to `Nc1nc2c(c(-c3ccn[nH]3)n1)CCN(C(=O)c1cccc(C(F)(F)F)c1Cl)C2` [Example 55, 7-{[2-Chloro-3-(trifluoromethyl)phenyl]carbonyl}-4-(1H-pyrazol-5-yl)-5,6,7,8-tetrahydropyrido[3,4-d]pyrimidin-2-amine], on P2X7 [1], the IC50 worked out at 45.9 nM. The inhibition constant (Ki) on P2X7 [2] (setting [3]) came to 17.8 nM.
On to `O=C(c1cccc(C(F)(F)F)c1Cl)N1CCc2c(nc(C(F)(F)F)nc2-c2ccn[nH]2)C1` [Example 60, (4-(1H-pyrazol-5-yl)-2-(trifluoromethyl)-5,6-dihydropyrido[3,4-d]pyrimidin-7(8H)-yl)(2-chloro-3-(trifluoromethyl)phenyl)methanone], for which the IC50 at rat P2X7 came to 268 nM.
`Cc1nc2c(c(-c3ccn[nH]3)n1)CC(C)N(C(=O)c1ccc(Cl)c(F)c1Cl)C2` (stereo not shown) [Example 70, (2,4-dichloro-3-fluorophenyl)(2,6-dimethyl-4-(1H-pyrazol-5-yl)-5,6-dihydropyrido[3,4-d]pyrimidin-7(8H)-yl)methanone]: at rat P2X7, the IC50 is 12.4 nM.
Turning to `Cc1nc2c(c(-c3ccn[nH]3)n1)CC(C)N(C(=O)c1cccc(C(F)(F)F)c1C)C2` (stereo not shown) [Example 77, (2,6-dimethyl-4-(1H-pyrazol-5-yl)-5,6-dihydropyrido[3,4-d]pyrimidin-7(8H)-yl)(2-methyl-3-(trifluoromethyl)phenyl)methanone], the IC50 on rat P2X7 was 20 nM.
On to `Cc1nc2c(c(-c3ccn[nH]3)n1)CC(C)N(C(=O)c1ccc(Cl)cc1F)C2` (stereo not shown) [Example 87, (4-chloro-2-fluorophenyl)(2,6-dimethyl-4-(1H-pyrazol-5-yl)-5,6-dihydropyrido[3,4-d]pyrimidin-7(8H)-yl)methanone], for which the IC50 at rat P2X7 amounted to 15.2 nM.
`O=C(c1cccc(C(F)(F)F)c1Cl)N1CCc2c(ncnc2-n2nccn2)C1` [Example 108, 7-{[2-Chloro-3-(trifluoromethyl)phenyl]carbonyl}-4-(2H-1,2,3-triazol-2-yl)-5,6,7,8-tetrahydropyrido[3,4-d]pyrimidine] displayed a Ki on P2X7 [2] (setting [3]) of 26.6 nM.
Turning to `O=C(c1ccc(F)c(Cl)c1Cl)N1CCc2c(ncnc2-c2cccc(F)n2)C1` [Example 129, (2,3-dichloro-4-fluorophenyl)(4-(6-fluoropyridin-2-yl)-5,6-dihydropyrido[3,4-d]pyrimidin-7(8H)-yl)methanone], the IC50 at P2X7 [1] worked out at 106 nM; on rat P2X7 it was 1060 nM.
In the case of `Cc1nc2c(c(-c3ccn[nH]3)n1)CC(C)N(C(=O)c1ccc(F)cc1C)C2` (stereo not shown) [Example 133, (2,6-dimethyl-4-(1H-pyrazol-5-yl)-5,6-dihydropyrido[3,4-d]pyrimidin-7(8H)-yl)(4-fluoro-2-methylphenyl)methanone], the IC50 at rat P2X7 was 2220 nM.
